The numbers were not newly measured in patent US6403576B1, “Antifungal and antiparasitic compounds” (priority 1998, dated 2002), which cites them from elsewhere.

The chains behind the UniProt entries cited, without tags or fusion partners.
UniProt Q14534, whole entry: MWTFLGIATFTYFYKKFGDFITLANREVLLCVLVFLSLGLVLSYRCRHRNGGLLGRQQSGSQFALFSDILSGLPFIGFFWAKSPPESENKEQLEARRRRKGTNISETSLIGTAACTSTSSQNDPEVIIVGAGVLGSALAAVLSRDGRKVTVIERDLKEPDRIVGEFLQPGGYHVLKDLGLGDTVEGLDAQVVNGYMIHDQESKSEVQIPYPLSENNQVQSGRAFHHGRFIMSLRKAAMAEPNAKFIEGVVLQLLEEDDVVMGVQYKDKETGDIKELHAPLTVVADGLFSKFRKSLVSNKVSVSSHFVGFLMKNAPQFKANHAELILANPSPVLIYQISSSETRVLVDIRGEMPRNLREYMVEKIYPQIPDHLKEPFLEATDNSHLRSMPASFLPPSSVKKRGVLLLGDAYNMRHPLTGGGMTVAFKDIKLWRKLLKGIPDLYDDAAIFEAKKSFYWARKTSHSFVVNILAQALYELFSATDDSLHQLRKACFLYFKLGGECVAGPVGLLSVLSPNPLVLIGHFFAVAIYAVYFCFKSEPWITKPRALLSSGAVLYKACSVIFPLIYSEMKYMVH

The IC50 is the point on the concentration scale where inhibition reaches its midpoint.

For this data set, the target named is Squalene Oxidase (Homo sapiens, UniProt Q14534). The following applies: Abe et al, 1994; cited from earlier work.

For the compound `CN(C/C=C/C#CC(C)(C)C)Cc1cccc2c(Cl)csc12`, the IC50 is 11 nM.
